Experimental data: patent publication US7893077B2, “Bisaryl-sulfonamides” (Amgen Inc., priority 2004, dated 2011)

Chains of the proteins cited; added tags and fusions are not shown.
UniProt P37231, whole entry: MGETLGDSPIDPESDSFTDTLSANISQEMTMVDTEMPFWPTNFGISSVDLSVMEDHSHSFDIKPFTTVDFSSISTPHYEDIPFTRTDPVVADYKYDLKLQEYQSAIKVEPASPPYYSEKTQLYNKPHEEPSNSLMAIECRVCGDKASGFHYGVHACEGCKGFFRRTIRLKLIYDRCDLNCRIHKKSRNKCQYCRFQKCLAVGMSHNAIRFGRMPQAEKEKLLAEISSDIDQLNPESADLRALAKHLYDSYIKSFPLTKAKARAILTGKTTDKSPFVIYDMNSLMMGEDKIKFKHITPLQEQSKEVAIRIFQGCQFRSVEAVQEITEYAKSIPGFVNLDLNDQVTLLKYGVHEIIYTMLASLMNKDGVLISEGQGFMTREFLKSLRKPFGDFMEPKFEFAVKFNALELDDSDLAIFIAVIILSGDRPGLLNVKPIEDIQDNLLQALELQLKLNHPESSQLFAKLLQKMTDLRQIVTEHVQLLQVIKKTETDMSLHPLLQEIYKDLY

Biological target: PPARγ (Homo sapiens, UniProt P37231)
Assay: PPARγ ligand binding assay utilizing [3H]-BRL 49653 as the radioligand (filtration)
Conditions: read-out: PPARγ Binding IC50 Filtration; concentration required to reduce by 50% the specific binding of [3H]-BRL 49653
Source text: The compounds of the present invention can be evaluated for modulation of the PPARγ receptor using assays such as those described in Jiang, et al., Nature 391:82-86 (1998), Ricote, et al., Nature 391:79-82 (1998) and Lehmann, et al., J. Biol. Chem. 270(12): 12953-12956 (1995). Alternatively, the compounds can be evaluated for their ability to displace radiolabeled BRL 49653 from a PPARγ-GST fusion protein as follows:
PPARγ-GST fusion protein (prepared according to standard procedures), [^3H]-BRL 49653 having 50 Ci/mmol specific activity, Polyfiltronics Unifilter 350 filtration plate and glutathione-Sepharose® beads (from Pharmacia: washed twice with 10× binding buffer in which BSA and DTI can be left out).
Binding buffer (10 mM Tris-HCl, pH 8.0, 50 mM KCl, 10 mM DTT, 0.02% BSA and 0.0 1% NP-40) is added in 80-μL amounts to the wells of the filtration plate. The test compound is then added in 10 μL of DMSO. The PPARγ-GST fusion protein and radiolabeled BRL compound are premixed in binding buffer containing 10 mM DTT and added in 10-μL amounts to the wells of the plate to provide final concentrations of 1 µg/well of PPARγ-GST fusion protein and 10 nM [^3H]-BRL 49653 compound. The plate is incubated for 15 min. Glutathione-agarose bead is added in 50 μL of binding buffer, and the plate is vigorously shaken for one hour. The plate is washed four times with 200 μL/well of binding buffer (without BSA and DTT). The bottom of the plate is sealed and 200 μL/well of scintillation cocktail is added. The top of the plate is then sealed and the radioactivity is determined.
IC50 values are defined as the concentration of test compounds required to reduce by 50% the specific binding of [^3H]-BRL 49653 and are represented by (+)<30 μM; (++)<10 μM; (+++)<1 μM.

Structure (SMILES) | IC50 [µM]
CC(=O)c1cc(NS(=O)(=O)c2ccc(Cl)c(Cl)c2)cc(Cl)c1Oc1ccc(S(=O)(=O)N2CCOCC2)cc1 | < 1
COC(=O)c1cc(NS(=O)(=O)c2ccc(C(F)(F)F)cc2Cl)cc(Cl)c1Oc1ccc(S(=O)(=O)N2CCOCC2)cc1 | < 1
Cc1cc(S(=O)(=O)Nc2ccc(Sc3ccc(S(=O)(=O)N4CCCCC4)cc3)cn2)c(Cl)cc1Cl [Compound 67, 2,4-Dichloro-5-methyl-N-{5-[4-(piperidine-1-sulfonyl) -phenylsulfanyl]-pyridin-2-yl}-benzenesulfonamide] | < 1
CC(=O)c1cc(NS(=O)(=O)c2ccc(F)cc2Cl)cc(Cl)c1Oc1ccc(S(=O)(=O)N2CCOCC2)cc1 | < 1
Cc1cc(Oc2c(Cl)cc(NS(=O)(=O)c3ccc(C(F)(F)F)cc3Cl)cc2Cl)ccc1S(=O)(=O)N1CCCCC1 | < 1
O=S(=O)(Nc1cc(Cl)c(Sc2ccc(S(=O)(=O)N3CCOCC3)cn2)c(Cl)c1)c1ccc(C(F)(F)F)cc1Cl | < 1
Cc1cc(S(=O)(=O)Nc2ccc(Oc3ccc(S(=O)(=O)N4CCOCC4)cc3)c(Cl)c2)c(Cl)cc1Cl | < 10
CCN(CC)S(=O)(=O)c1ccc(Oc2c(C)cc(NS(=O)(=O)c3ccc(C(F)(F)F)cc3Cl)cc2Cl)cc1 | < 10
Cc1cc(Oc2ccc(NS(=O)(=O)c3ccc(Cl)cc3Cl)cc2C(=O)NCC(C)C)ccc1S(=O)(=O)N1CCCCC1 | < 1
O=S(=O)(Nc1ccc(Oc2ccc(S(=O)(=O)N3CCCCC3)cc2)c(Cl)c1)c1ccc(Cl)cc1Cl | < 10
Cc1cc(Oc2ccc(NS(=O)(=O)c3ccc(OC(F)(F)F)cc3)cc2C(=O)N(C)C(C)C)ccc1S(=O)(=O)N1CCCCC1 | < 10
CC(=O)c1cc(NS(=O)(=O)c2ccccc2F)cc(Cl)c1Oc1ccc(S(=O)(=O)N2CCOCC2)cc1 | < 10
O=S(=O)(Nc1cc(Cl)c(Oc2ccc(S(=O)(=O)N3CCOCC3)cc2)c(Cl)c1)c1ccc(Cl)cc1Cl | < 1
CC(=O)c1cc(NS(=O)(=O)c2ccccc2C)cc(Cl)c1Oc1ccc(S(=O)(=O)N2CCOCC2)cc1 | < 1
CC(=O)c1cc(NS(=O)(=O)c2ccccc2C#N)cc(Cl)c1Oc1ccc(S(=O)(=O)N2CCOCC2)cc1 | < 10
COc1ccc(Cl)cc1S(=O)(=O)Nc1cc(Cl)c(Oc2ccc(S(=O)(=O)N3CCOCC3)cc2)c(C(C)=O)c1 | < 1
Cc1cc(S(=O)(=O)Nc2ccc(Oc3ccc(S(=O)(=O)N4CCCCC4)cc3)c(C(=O)N(C)C(C)C)c2)c(Cl)cc1Cl | < 1
CC(=O)c1cc(NS(=O)(=O)c2cc(C(F)(F)F)ccc2Cl)cc(Cl)c1Oc1ccc(S(=O)(=O)N2CCOCC2)cc1 | < 1
Cc1cc(S(=O)(=O)N2CCOCC2)ccc1Oc1c(Cl)cc(NS(=O)(=O)c2ccc(C(F)(F)F)cc2Cl)cc1Cl | < 1
Cc1cc(Oc2ccc(NS(=O)(=O)c3ccc(Cl)cc3Cl)cc2C(=O)NC(C)C)ccc1S(=O)(=O)N1CCCC1 | < 1
CC(=O)c1cc(NS(=O)(=O)c2ccc(Cl)cc2Cl)ccc1Oc1ccc(S(=O)(=O)N2CCCC2)c(C)c1 | < 1
Cc1nc(-c2cc(NS(=O)(=O)c3ccc(C(F)(F)F)cc3Cl)ccc2Oc2ccc(S(=O)(=O)N3CCOCC3)cc2)cs1 | < 1
O=S(=O)(Nc1ncc(Sc2ccc(S(=O)(=O)N3CCCCC3)cc2)c(O)n1)c1ccc(Cl)cc1Cl | < 10
CON(C)C(=O)c1cc(NS(=O)(=O)c2cc(C)c(Cl)cc2Cl)ccc1Oc1ccc(S(=O)(=O)N2CCCCC2)cc1 | < 1
CC(=O)c1cc(NS(=O)(=O)c2ccc(F)c(Cl)c2)cc(Cl)c1Oc1ccc(S(=O)(=O)N2CCOCC2)cc1 | < 1
CC(=O)c1cc(NS(=O)(=O)c2cc(F)ccc2F)cc(Cl)c1Oc1ccc(S(=O)(=O)N2CCOCC2)cc1 | < 10
CCc1ccc(S(=O)(=O)Nc2cc(Cl)c(Oc3ccc(S(=O)(=O)N4CCOCC4)cc3)c(C(C)=O)c2)cc1 | < 10

Structure (SMILES) | IC50 [µM]
Cc1cc(S(=O)(=O)Nc2cc(C)c(Sc3ccc(S(=O)(=O)N4CCCCC4)cc3)cn2)c(Cl)cc1Cl [Compound 62, 2,4-Dichloro-5-methyl-N-{4-methyl-5-[4-(piperidine-1-sulfonyl)-phenylsulfanyl]-pyridin-2-yl}-benzenesulfonamide] | < 1
CC(=O)c1cc(NS(=O)(=O)c2cc(Cl)cc(Cl)c2)cc(Cl)c1Oc1ccc(S(=O)(=O)N2CCOCC2)cc1 | < 10
CCc1cc(S(=O)(=O)N(CC)CC)ccc1Oc1c(Cl)cc(NS(=O)(=O)c2ccc(C(F)(F)F)cc2Cl)cc1Cl | < 1
CC(=O)c1cc(NS(=O)(=O)c2ccc(C(F)(F)F)cc2Cl)cc(Cl)c1Oc1ccc(S(=O)(=O)N2CCCC2)c(C)c1 | < 1
CC(=O)c1cc(NS(=O)(=O)c2ccc(C#N)cc2)cc(Cl)c1Oc1ccc(S(=O)(=O)N2CCOCC2)cc1 | < 1
CC(=O)c1cc(NS(=O)(=O)c2ccc(C(C)C)cc2)cc(Cl)c1Oc1ccc(S(=O)(=O)N2CCOCC2)cc1 | < 10
COCc1cc(NS(=O)(=O)c2ccc(Cl)cc2Cl)ccc1Oc1ccc(S(=O)(=O)N2CCOCC2)cc1 | < 1
CC(=O)c1cc(NS(=O)(=O)c2cc(F)ccc2C)cc(Cl)c1Oc1ccc(S(=O)(=O)N2CCOCC2)cc1 | < 10
CC(C)CC(=O)c1cc(NS(=O)(=O)c2ccc(C(F)(F)F)cc2Cl)ccc1Oc1ccc(S(=O)(=O)N2CCCCC2)cc1 | < 1
O=C(c1cc(NS(=O)(=O)c2ccc(Cl)cc2Cl)ccc1Oc1ccc(S(=O)(=O)N2CCOCC2)cc1)C1CC1 | < 1
CCN(CC)S(=O)(=O)c1ccc(Oc2ccc(NS(=O)(=O)c3ccc(Cl)cc3Cl)cc2Cl)cc1 | < 1
C=C(C)CC(=O)c1cc(NS(=O)(=O)c2ccc(Cl)cc2Cl)ccc1Oc1ccc(S(=O)(=O)N2CCCCC2)c(C)c1 | < 1
CC(=O)c1cc(NS(=O)(=O)c2cc(C)c(Cl)cc2Cl)ccc1Oc1ccc(S(=O)(=O)N2CCCC2)c(C)c1 | < 1
O=S(=O)(Nc1ncc(Sc2ccc3ccccc3c2)c(O)n1)c1ccc(Cl)cc1Cl | < 10
O=S(=O)(Nc1cc(Cl)c(Oc2ccc(S(=O)(=O)N3CC[C@H](O)C3)cc2)c(Cl)c1)c1ccc(C(F)(F)F)cc1Cl | < 1
Cc1cc(S(=O)(=O)Nc2ccc(Oc3ccc(S(=O)(=O)N4CCCCC4)cc3)c(C(=O)NC(C)C)c2)c(Cl)cc1Cl | < 1
CCCCC(=O)c1cc(NS(=O)(=O)c2cc(C)c(Cl)cc2Cl)ccc1Oc1ccc(S(=O)(=O)N2CCCCC2)cc1 | < 1
CC(=O)c1cc(NS(=O)(=O)c2cc(C)c(Cl)cc2Cl)cc(Cl)c1Oc1ccc(S(=O)(=O)N2CCCCC2)cc1 | < 1
CCc1nc(-c2cc(NS(=O)(=O)c3ccc(Cl)cc3Cl)ccc2Oc2ccc(S(=O)(=O)N3CCOCC3)cc2)cs1 | < 1
CC(=O)c1cc(NS(=O)(=O)c2ccccc2OC(F)(F)F)cc(Cl)c1Oc1ccc(S(=O)(=O)N2CCOCC2)cc1 | < 1
CCNC(=O)c1cc(NS(=O)(=O)c2cc(C)c(Cl)cc2Cl)ccc1Oc1ccc(S(=O)(=O)N2CCCCC2)cc1 | < 1
Cc1cc(S(=O)(=O)Nc2ccc(Sc3ccccc3)nn2)c(Cl)cc1Cl | < 10
CCN(CC)S(=O)(=O)c1ccc(Oc2c(C)cc(NS(=O)(=O)c3cc(C)c(Cl)cc3C)cc2Cl)cc1 | < 10
CC(=O)c1cc(NS(=O)(=O)c2c(C)cc(C)cc2C)cc(Cl)c1Oc1ccc(S(=O)(=O)N2CCOCC2)cc1 | < 10
CC(=O)c1cc(NS(=O)(=O)c2cccc(C#N)c2)cc(Cl)c1Oc1ccc(S(=O)(=O)N2CCOCC2)cc1 | < 30
CC(=O)c1cc(NS(=O)(=O)c2cc(Cl)c(Cl)cc2Cl)cc(Cl)c1Oc1ccc(S(=O)(=O)N2CCOCC2)cc1 | < 1
